Earlier results, collected in patent publication EP0935964A1, “Pharmaceutical compositions containing NSAIDs and piperine” (PANACEA BIOTEC LIMITED, priority 1998, dated 1999).

Details: in vivo; cited from earlier work

SMILES: CS(=O)(=O)Nc1ccc([N+](=O)[O-])cc1Oc1ccccc1 [Nimesulide, N-(4-nitro, 2-phenoxyphenyl) methanesulfonamide]
- metabolites excreted in the faeces: ~20%
- metabolites excreted in the urine: ~70%
